Binding of CDR-mutated scFvs to a peptide of the spike HR2 region

From the AlphaSeq antibody data of Li et al. 2023 (doi:10.1038/s41467-023-39022-2), copy in the FLAb collection.

Antigen: PDVDLGDISGINAS, a 14-residue peptide of the SARS-CoV-2 spike HR2 region.

Each scFv is VH, the linker GGGGSGGGGSGGGGS, VL, as in the parent Ab-14, and differs from it in the CDRs of the heavy chain only.
VH: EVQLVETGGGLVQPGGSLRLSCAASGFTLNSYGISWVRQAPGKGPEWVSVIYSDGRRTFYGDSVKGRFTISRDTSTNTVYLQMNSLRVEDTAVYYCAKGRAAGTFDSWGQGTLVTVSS
VL: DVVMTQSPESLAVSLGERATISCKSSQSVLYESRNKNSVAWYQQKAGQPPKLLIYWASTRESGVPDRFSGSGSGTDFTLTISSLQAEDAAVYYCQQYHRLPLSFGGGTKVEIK

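The starting antibody came from a phage panning campaign against this peptide. The variants were designed computationally from a first round of random CDR variants and then made and measured. Several design methods are mixed in this list. Affinity was read by AlphaSeq, a pooled yeast mating assay with surface-displayed partners. Binding brings cells together so that they mate, and sequencing counts the barcode pairs among the diploids. Scores were corrected for input abundance and mapped to Kd with protein pairs of known affinity run in the same pool. There are six technical replicates.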

Each variant is given by its three heavy chain CDRs, as the data file delimits them; those of the parent are GFTLNSYGIS, VIYSDGRRTFYGDSVK, GRAAGTFDS.
This list holds designs with at most six substitutions.
Values are apparent Kd, the geometric mean of the replicates that gave a signal; lower means stronger binding.
An entry "not detected" has no value in the source: the pair was not observed among the diploids in any replicate. This suggests poor binding but is not conclusive.
Entries are sorted by rising average, undetected variants last.

| CDR-H1 | CDR-H2 | CDR-H3 | Kd (apparent) | detected |
|---|---|---|---|---|
| GFDLNSYGIS | VIYSDGMRTFYGDSVK | GRTAGTFDE | 150 pM | 6 of 6 |
| GFTLDSYGIS | VIYSDGRRTFYGDSVK | GKAAGTFDS | 200 pM | 3 of 6 |
| GFDLNEYGIS | VIYADGRRTFYADSVK | GQIAGTFDS | 260 pM | 6 of 6 |
| GFGLNEYGIS | VIYSDGKRTFYSDSVK | GRAAGTFDS | 370 pM | 6 of 6 |
| GFSLNEYGIS | VIYSDGRRTFYGDSVK | GRTAGTFDG | 640 pM | 6 of 6 |
| GFGLNEYGIS | VIYSDGRRTFYSDSVK | GRTAGTFDS | 810 pM | 6 of 6 |
| KFDLNSYGIS | VIYSDGRRTFYQDSVK | GRQAGTFDS | 930 pM | 6 of 6 |
| GFQLNEYGIS | VIYSDGKRTFYGDSVK | GRTAGTFDS | 970 pM | 6 of 6 |
| GFSLNEYGIS | VIYSDGRRTFYGDSVK | GRFAGTFDS | 1.2 nM | 6 of 6 |
| GFDLNMYGIS | VIYSDGRRTFYDDSVK | GKAAGTFDS | 1.2 nM | 6 of 6 |
| GFSLNEYGIS | VIYSDGRRTFYGDSVK | GRAAGTFDD | 1.2 nM | 6 of 6 |
| GFRLEEYGIS | VIYSDGRRTFYGDSVK | GRAAGTFDQ | 2.2 nM | 6 of 6 |
| GFSLNEYGIS | VIYSDGRRTFYCDSVK | GKAAGTFDS | 2.4 nM | 6 of 6 |
| GFTLDSYGIS | VIYSDGRRTFYGDSVK | GEAAGTFDS | 2.5 nM | 6 of 6 |
| GFSLNSYGIS | VIYSDGRRTFYADSVK | GWMAGTFDS | 2.5 nM | 6 of 6 |
| GFSLNNYGIS | VIYSDGKRTFYGDSVK | GQAAGTFDS | 2.7 nM | 6 of 6 |
| GFSLNSYGIS | VIYSDGRRTFYGDSVK | GMAAGTFDT | 2.9 nM | 6 of 6 |
| MFDLNSYGIS | VIYSDGRRTFYGDSVK | GREAGTFDV | 3.6 nM | 2 of 6 |
| GFQLNSYGIS | VIYSDGRRTFYDDSVK | GRTAGTFDS | 4.9 nM | 6 of 6 |
| GFTLDQYGIS | VIYSDGRRTFYADSVK | GRAAGTFDS | 6.0 nM | 6 of 6 |
| GFSLNNYGIS | VIYSDGRRTFYGDSVK | GRAAGTFDS | 6.2 nM | 12 of 12 |
| GFSLNSYGIS | VIYSDGRRTFYEDSVK | GRAAGTFDS | 6.2 nM | 6 of 6 |
| GFSLNSYGIS | VIYSDGRRTFYMDSVK | GQTAGTFDS | 7.2 nM | 6 of 6 |
| GFHLNSYGIS | VIYSDGRRTFYGDSVK | GKQAGTFDS | 7.4 nM | 5 of 6 |
| GFQLNNYGIS | VIYSDGRRTFYSDQVK | GQAAGTFDS | 7.7 nM | 6 of 6 |
| GFELNSYGIS | VIYSDGKRTFYADSVK | GQAAGTFDS | 8.0 nM | 6 of 6 |
| GFILNDYGIS | VIYSDGRRTFYGDAVK | GRVAGTFDI | 9.7 nM | 6 of 6 |
| GFKLNSYGIS | VIYSDGRRTFYHDSVK | GQLAGTFDS | 9.8 nM | 6 of 6 |
| GFDLNSYGIS | VIYSDGRRTFYGDSVK | GQTAGTFDQ | 14 nM | 6 of 6 |
| GFTLNSQGIS | VIYSDGQRVFYGDSVK | GRAAGTFDS | 20 nM | 1 of 6 |
| GFTLNDYGIS | VIYSDGRRTFYGDSVK | GRLAGTFDK | 22 nM | 5 of 6 |
| GFNLNSYGIS | VIYSDGRRTFYIDSVK | GQAAGTFDT | 36 nM | 6 of 6 |
| GFTLNSYGIS | VIYSDGHRTFYDDSVK | GRLAGTFDS | 41 nM | 4 of 6 |
| GFWLNEYGIS | VIYSDGRRTFYGDSVK | GRQAGTFDT | 49 nM | 6 of 6 |
| GFTLNSYGIS | VIYSDGRRTFYGDDVK | GQAAGTFDL | 65 nM | 3 of 6 |
| GFELNSYGIS | VIYSDGRRTFYGDSVK | GSAAGTFDD | 94 nM | 3 of 6 |
| GFTLNSYGIS | VIYSDGRRTFYGDSVK | GDAVGTFDL | 120 nM | 1 of 6 |
| GFTLNEYGIS | VIYSDGRRAFYGDSVK | GRAAVTFDQ | 170 nM | 2 of 6 |
| GFTLNMYGIS | VIYSDGRRTFYGDSVK | GRAAGTFRS | 170 nM | 1 of 6 |
| GFTLNSYGIS | VIYSDGQRTFYGDSVK | GREAGTFDS | 300 nM | 2 of 6 |
| GFSLNSYGIS | VIYSDGRRTFYQDSVK | GRNAGYFDS | 1.0 µM | 1 of 6 |
| GFTLNSYGIS | VIYSDGRRTAYADSVK | GRAAGTFFS | 52 µM | 1 of 6 |
| GFTLNSYGIH | VIYSDGRRTFYGDSVK | RRSAGTFDS | not detected | 0 of 6 |
| GFCLNSYGIS | VIYSDGRRTFYGDSVK | IDIAGTFDS | not detected | 0 of 6 |
| GFDLNSYGIS | VIYSDGRRTFYEDSVK | GRAAVTFDS | not detected | 0 of 6 |
| GFHLNQYGWS | VIYSDGRDTFYSDSVK | GRAAGFFDS | not detected | 0 of 6 |
| QFTLNSYGIS | VIYSDGRRTFYGDSVK | GRAAGTFDV | not detected | 0 of 6 |
| GFTLRDYGIS | VIYSDGRRTFYADSVK | GFAAGTFDS | not detected | 0 of 6 |
| GFTLNSYGIS | VIYSDGRRTPYDDSVK | GQWAGTFDS | not detected | 0 of 6 |
| GFTLNSYGIS | VIHSDGRRTFYSDSVK | GRAGGTFDS | not detected | 0 of 6 |
| GFTLNNYGIS | VIYSDGQRTFYGDSVK | GRAAGTFVS | not detected | 0 of 6 |
| SFELNMYGIS | VIYSDGRRTFYGDSVK | GKTAGTFDS | not detected | 0 of 6 |
| GFTLNEYGIS | VIYSDGMRTFYGDSVK | GRAAVTFDQ | not detected | 0 of 6 |
| GFTLNEYGIS | VIYSDGRRTFMADSVK | GRLAGTSDS | not detected | 0 of 6 |
| GFDLNSYGIS | VIYSDGRRTFYGDSVK | GRAAGHFKS | not detected | 0 of 6 |
| GFNLNSYGIS | VIYSDGRRTFYSDSVK | GEAAGTFDS | not detected | 0 of 6 |
| GFTLNEYGIS | VIYSDGRRTFYGDSVK | GRAMKTFEQ | not detected | 0 of 6 |
| GFTLNEYGIS | VIYSDGRRTFYGDSVK | GRFAGTFDW | not detected | 0 of 6 |
| GFTLNSYGIS | VIYSDGRRTFYGDSVK | GTAQGTFDS | not detected | 0 of 6 |
| GFTLNEYGIS | VIYSDGRRTFYHDSVK | GRAAGHFDS | not detected | 0 of 6 |
| GFTLNSYGIS | VIYSDGYRTFYGDSVE | GRGDGTFDS | not detected | 0 of 6 |

Repeated from above, the 4 best binders with a signal in all replicates:

| CDR-H1 | CDR-H2 | CDR-H3 | Kd (apparent) | detected |
|---|---|---|---|---|
| GFDLNSYGIS | VIYSDGMRTFYGDSVK | GRTAGTFDE | 150 pM | 6 of 6 |
| GFDLNEYGIS | VIYADGRRTFYADSVK | GQIAGTFDS | 260 pM | 6 of 6 |
| GFGLNEYGIS | VIYSDGKRTFYSDSVK | GRAAGTFDS | 370 pM | 6 of 6 |
| GFSLNEYGIS | VIYSDGRRTFYGDSVK | GRTAGTFDG | 640 pM | 6 of 6 |

In the paper, a design with two or fewer of six values counts as a poor binder.
Background: pairings of all heavy chain designs with three empty control strains gave a value in 1% of cases (median 120 nM, 5th percentile 7.0 nM). Values in that range, when seen in few replicates, are hard to tell from nonspecific mating.
Values of this round are not directly comparable with the first-round values of the same sequences.
Some sequences occur more than once in the pool; their replicates are pooled.